According to US12390454B2, “Use and composition for protection against organophosphorus poisoning” (dated 2025):

Key:
[1] = Phase I study: oral pyridostigmine bromide with or without oral ondansetron, gastro-intestinal adverse effects and tolerated dose
[2] = 3×3 cm patch, rhesus monkeys; cited from earlier work
[3] = Phase I study: oral pyridostigmine bromide with or without oral aprepitant, gastro-intestinal adverse effects and tolerated dose

With `Cc1nccn1CC1CCc2c(c3ccccc3n2C)C1=O` (racemic) the “gastro-intestinal AEs reported with pyridostigmine alone at FID” value ([1]; co-administration of ondansetron hydrochloride dihydrate 10 mg oral with pyridostigmine at first intolerable dose (FID), human subjects) was “attenuated gastro-intestinal AEs” and the “occurrence of gastro-intestinal AEs” value ([1]; oral high dose ondansetron with pyridostigmine in doses as high as or higher than the recommended efficacious dose for OP poisoning) was “prevented the occurrence of gastro-intestinal AEs”.

For `CNC(=O)Oc1ccc2c(c1)[C@]1(C)CCN(C)[C@@H]1N2C`, the blood concentration [2] is listed as 0.54 ng/mL.

With `CN(C)C(=O)Oc1ccc[n+](C)c1` the “pyridostigmine dose given without gastro-intestinal AEs, relative to the recommended efficacious dose for OP poisoning” value ([3]; co-administered with oral aprepitant) was “up to 6 times”, the “highest tolerated daily dose of pyridostigmine” value ([3]; in the presence of aprepitant, oral, human subjects) was “generally exceeding the recommended dose for the treatment of OP poisoning” and the “highest tolerated daily dose of pyridostigmine” value ([1]; in the presence of ondansetron, oral, human subjects) was “generally exceeding the recommended dose for the treatment of OP poisoning”.

For `OC(CCN1CCCC1)(c1ccccc1)C1CCCCC1` (stereo not drawn), the blood concentration [2] is given as 10.8 ng/mL.

For `C[C@@H](O[C@H]1OCCN(Cc2n[nH]c(=O)[nH]2)[C@H]1c1ccc(F)cc1)c1cc(C(F)(F)F)cc(C(F)(F)F)c1`, the “gastro-intestinal AEs reported with pyridostigmine alone at FID” value ([3]; co-administration of aprepitant (80 mg to 120 mg oral) with pyridostigmine at first intolerable dose (FID), human subjects) was “attenuated gastro-intestinal AEs” and the “occurrence of gastro-intestinal AEs” value ([3]; oral aprepitant with pyridostigmine in doses as high as or higher than the recommended efficacious dose for OP poisoning) was “prevented the occurrence of gastro-intestinal AEs”.
